Results taken from patent US12357591B2, “Sublingual epinephrine compositions including pH-modifying excipients and penetration enhancers and methods for use thereof” (Nova Southeastern University, priority 2018, dated 2025).
Read-outs that look alike come from different tables or passages of the source.

Protocol: Frozen pig's heads were obtained from local abattoir. Then, they were defrosted at room temperature. The porcine mucosa were excised by dissecting the sublingual mucosa and removing the underlying connective tissue using a scalpel and fine tweezers using established surgical techniques. The excised mucosa were frozen on aluminum foil at −20° C. until used (<4 weeks).
The sublingual mucosa (floor of the mouth) excised from pigs were used as the diffusion membranes. Mcvilian buffer at various pH was used in the donor cell as a diffusion medium.
Before each experiment, the mucosal membranes were defrosted at room temperature and mounted between the donor and receptor chambers and clamped using a metal clamp. The receptor chamber that has a magnetic stirrer was filled with the diffusion medium before mounting the membranes and air bubbles were removed after mounting the membranes and before the experiment. The water bath was set at 37° C. for the circulating water in the jacketed Franz Cells. The mounted membranes were equilibrated with the diffusion medium for 30 min from both sides before the experiment and were checked for any leaks.
Aliquots were withdrawn from the receptor chamber using 6 inch-long needles (Popper & Sons. Inc, New Hyde Park, NYC) and 1 mL syringes at 5, 10, 15, 20, 30, 45, 60, 75, and 90 min. The withdrawn volumes were replaced with fresh medium.
Samples were transferred to HPLC vials for HPLC analysis according to USP Method.

CNC[C@H](O)c1ccc(O)c(O)c1 [Epi, Epinephrine]
percentage of diffused epinephrine (%) (pH 5, 5 min): 0.5 ± 0.03% | percentage of diffused epinephrine (%) (pH 5, 10 min): 0.6 ± 0.01% | cumulative permeated epinephrine (20 mg) per area (pH 5, 15 min): 40.3 ± 1.3 μg/cm^2 | percentage of diffused epinephrine (%) (pH 5, 15 min): 0.6 ± 0.02% | cumulative permeated epinephrine (20 mg) per area (pH 5, 20 min): 43.6 ± 1.1 μg/cm^2 | percentage of diffused epinephrine (%) (pH 5, 20 min): 0.7 ± 0.02% | cumulative permeated epinephrine (20 mg) per area (pH 5, 30 min): 46.7 ± 1.4 μg/cm^2 | percentage of diffused epinephrine (%) (pH 5, 30 min): 0.7 ± 0.02% | cumulative permeated epinephrine (20 mg) per area (pH 5, 45 min): 50.7 ± 1.5 μg/cm^2 | percentage of diffused epinephrine (%) (pH 5, 45 min): 0.8 ± 0.02% | cumulative permeated epinephrine (20 mg) per area (pH 5, 60 min): 58.7 ± 3.9 μg/cm^2 | percentage of diffused epinephrine (%) (pH 5, 60 min): 0.3 ± 0.06% | cumulative permeated epinephrine (20 mg) per area (pH 5, 75 min): 78.2 ± 7.5 μg/cm^2 | percentage of diffused epinephrine (%) (pH 5, 75 min): 1.2 ± 0.12% | cumulative permeated epinephrine (20 mg) per area (pH 5, 90 min): 118.1 ± 3.5 μg/cm^2 | percentage of diffused epinephrine (%) (pH 5, 90 min): 1.9 ± 0.6% | cumulative permeated epinephrine (20 mg) per area (pH 6, 5 min): 4.7 ± 1.5 μg/cm^2 | percentage of diffused epinephrine (%) (pH 6, 5 min): 0.1 ± 0.02% | cumulative permeated epinephrine (20 mg) per area (pH 6, 10 min): 7.7 ± 1.6 μg/cm^2 | percentage of diffused epinephrine (%) (pH 6, 10 min): 0.1 ± 0.02% | cumulative permeated epinephrine (20 mg) per area (pH 6, 15 min): 11.6 ± 1.0 μg/cm^2 | percentage of diffused epinephrine (%) (pH 6, 15 min): 0.2 ± 0.02% | percentage of diffused epinephrine (%) (pH 6, 20 min): 0.2 ± 0.05% | cumulative permeated epinephrine (20 mg) per area (pH 6, 30 min): 23.2 ± 6.0 μg/cm^2 | percentage of diffused epinephrine (%) (pH 6, 30 min): 0.4 ± 0.09% | cumulative permeated epinephrine (20 mg) per area (pH 6, 45 min): 43.3 ± 15.5 μg/cm^2 | percentage of diffused epinephrine (%) (pH 6, 45 min): 0.7 ± 0.24% | cumulative permeated epinephrine (20 mg) per area (pH 6, 60 min): 66.4 ± 3.6 μg/cm^2 | percentage of diffused epinephrine (%) (pH 6, 60 min): 1.0 ± 0.06% | cumulative permeated epinephrine (20 mg) per area (pH 6, 75 min): 147.8 ± 41.1 μg/cm^2 | percentage of diffused epinephrine (%) (pH 6, 75 min): 2.3 ± 0.64% | cumulative permeated epinephrine (20 mg) per area (pH 6, 90 min): 240.0 ± 68.5 μg/cm^2 | percentage of diffused epinephrine (%) (pH 6, 90 min): 3.8 ± 1.08% | cumulative permeated epinephrine (20 mg) per area (pH 6.6, 5 min): 20.2 ± 1.2 μg/cm^2 | cumulative permeated epinephrine (20 mg) per area (pH 6.6, 10 min): 27.6 ± 0.4 μg/cm^2 | cumulative permeated epinephrine (20 mg) per area (pH 6.6, 15 min): 44.9 ± 3.0 μg/cm^2 | cumulative permeated epinephrine (20 mg) per area (pH 6.6, 20 min): 115.3 ± 2.6 μg/cm^2 | cumulative permeated epinephrine (20 mg) per area (pH 6.6, 30 min): 119.9 ± 2.9 μg/cm^2 | cumulative permeated epinephrine (20 mg) per area (pH 6.6, 45 min): 447.5 ± 212.7 μg/cm^2 | cumulative permeated epinephrine (20 mg) per area (pH 6.6, 60 min): 877.6 ± 24 μg/cm^2 | cumulative permeated epinephrine (20 mg) per area (pH 6.6, 75 min): 889.7 ± 3.2 μg/cm^2 | cumulative permeated epinephrine (20 mg) per area (pH 6.6, 90 min): 1401.5 ± 85.0 μg/cm^2 | percentage of diffused epinephrine (%) (pH 6.8, 5 min): 0.3 ± 0.02% | percentage of diffused epinephrine (%) (pH 6.8, 10 min): 0.4 ± 0.01% | percentage of diffused epinephrine (%) (pH 6.8, 15 min): 0.7 ± 0.05% | percentage of diffused epinephrine (%) (pH 6.8, 20 min): 1.8 ± 0.04% | percentage of diffused epinephrine (%) (pH 6.8, 30 min): 1.9 ± 0.05% | percentage of diffused epinephrine (%) (pH 6.8, 45 min): 7.0 ± 3.34% | percentage of diffused epinephrine (%) (pH 6.8, 60 min): 13.8 ± 0.04% | percentage of diffused epinephrine (%) (pH 6.8, 75 min): 14.0 ± 0.05% | percentage of diffused epinephrine (%) (pH 6.8, 90 min): 22.0 ± 1.33% | cumulative permeated epinephrine (20 mg) per area (pH 7.4, 5 min): 18.1 ± 0.7 μg/cm^2 | percentage of diffused epinephrine (%) (pH 7.4, 5 min): 0.3 ± 0.01% | cumulative permeated epinephrine (20 mg) per area (pH 7.4, 10 min): 22.2 ± 1.3 μg/cm^2 | percentage of diffused epinephrine (%) (pH 7.4, 10 min): 0.3 ± 0.02% | cumulative permeated epinephrine (20 mg) per area (pH 7.4, 15 min): 29.2 ± 1.1 μg/cm^2 | percentage of diffused epinephrine (%) (pH 7.4, 15 min): 0.5 ± 0.02% | cumulative permeated epinephrine (20 mg) per area (pH 7.4, 20 min): 33.1 ± 0.6 μg/cm^2 | percentage of diffused epinephrine (%) (pH 7.4, 20 min): 0.5 ± 0.01% | cumulative permeated epinephrine (20 mg) per area (pH 7.4, 30 min): 145.8 ± 3.8 μg/cm^2 | percentage of diffused epinephrine (%) (pH 7.4, 30 min): 2.3 ± 0.06% | cumulative permeated epinephrine (20 mg) per area (pH 7.4, 45 min): 232.4 ± 6.6 μg/cm^2 | percentage of diffused epinephrine (%) (pH 7.4, 45 min): 3.6 ± 0.10% | cumulative permeated epinephrine (20 mg) per area (pH 7.4, 60 min): 810.2 ± 156.9 μg/cm^2 | percentage of diffused epinephrine (%) (pH 7.4, 60 min): 12.7 ± 2.46% | cumulative permeated epinephrine (20 mg) per area (pH 7.4, 75 min): 1644.8 ± 317.7 μg/cm^2 | percentage of diffused epinephrine (%) (pH 7.4, 75 min): 25.8 ± 1.99% | cumulative permeated epinephrine (20 mg) per area (pH 7.4, 90 min): 2316.0 ± 4.6 μg/cm^2 | percentage of diffused epinephrine (%) (pH 7.4, 90 min): 36.4 ± 0.07% | cumulative permeated epinephrine (20 mg) per area (pH 8, 5 min): 283.6 ± 1.7 μg/cm^2 | percentage of diffused epinephrine (%) (pH 8, 5 min): 4.5 ± 0.03% | cumulative permeated epinephrine (20 mg) per area (pH 8, 10 min): 367.9 ± 3.0 μg/cm^2 | percentage of diffused epinephrine (%) (pH 8, 10 min): 5.8 ± 0.05% | cumulative permeated epinephrine (20 mg) per area (pH 8, 15 min): 491.3 ± 9.3 μg/cm^2 | percentage of diffused epinephrine (%) (pH 8, 15 min): 7.7 ± 0.15% | cumulative permeated epinephrine (20 mg) per area (pH 8, 20 min): 700.0 ± 7.0 μg/cm^2 | percentage of diffused epinephrine (%) (pH 8, 20 min): 11.0 ± 0.11% | cumulative permeated epinephrine (20 mg) per area (pH 8, 30 min): 967.0 ± 14.4 μg/cm^2 | cumulative permeated epinephrine (20 mg) per area (pH 8, 45 min): 1325.7 ± 11.7 μg/cm^2 | cumulative permeated epinephrine (20 mg) per area (pH 8, 60 min): 1902.2 ± 19.1 μg/cm^2 | percentage of diffused epinephrine (%) (pH 8, 60 min): 29.9 ± 0.30% | cumulative permeated epinephrine (20 mg) per area (pH 8, 75 min): 2667.9 ± 30.7 μg/cm^2 | percentage of diffused epinephrine (%) (pH 8, 75 min): 41.9 ± 0.48% | cumulative permeated epinephrine (20 mg) per area (pH 8, 90 min): 3226.6 ± 29.9 μg/cm^2 | percentage of diffused epinephrine (%) (pH 8, 90 min): 50.7 ± 0.47%
